# Apparent affinities of Ab-14 variants for a coronavirus HR2 peptide

From the AlphaSeq antibody data of Engelhart et al. 2022 (doi:10.1038/s41597-022-01779-4), copy in the FLAb collection.

Target: peptide PDVDLGDISGINAS, taken from heptad repeat 2 (HR2) of SARS-CoV-2 spike.

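The starting antibody came from a phage panning campaign against this peptide. Library AAYL49 holds single substitutions and randomly drawn double and triple substitutions in the CDRs. Affinity was read by AlphaSeq, a pooled yeast mating assay with surface-displayed partners. After mating in shaken culture at 30 °C for 16 h, diploids were selected and their barcode pairs sequenced. Scores were corrected for input abundance and mapped to Kd with protein pairs of known affinity run in the same pool. The assay was run in three technical replicates.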

Ab-14 is the parent antibody, in scFv form: VH, then a (GGGGS)3 linker, then VL. The light chain is unchanged in all variants.
VH: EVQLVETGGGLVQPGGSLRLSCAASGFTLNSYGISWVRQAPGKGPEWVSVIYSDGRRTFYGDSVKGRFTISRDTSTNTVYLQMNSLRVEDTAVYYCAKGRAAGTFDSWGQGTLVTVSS
VL: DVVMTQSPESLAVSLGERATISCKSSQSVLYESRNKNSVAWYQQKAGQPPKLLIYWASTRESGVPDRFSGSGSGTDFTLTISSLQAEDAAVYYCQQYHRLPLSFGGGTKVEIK

Substitutions are numbered in sequence along the VH above, starting at 1 (not Kabat). Every variant below is changed at G33 of the VH (sequential numbering). Affinities are written as log10 Kd with Kd in nM; a lower number is a better binder. Replicates are averaged; those with no signal do not enter the mean. A pair that was not seen in that replicate is written "nd"; this usually means weak binding, but a binder can also be missed.

- G33A G61C A102H = 5.61, nd, nd (controls 3 of 9)
- F27C G33I S63L = nd, nd, nd (controls 0 of 9)
- F27Y G33V D54G = 5.86, 5.44, 4.74 (mean 5.35; controls 3 of 9)
- F27C G33Y D62F = 3.97, 4.80, 3.99 (mean 4.26; controls 2 of 9)
- G33F K65W A102W = 4.54, 4.52, nd (mean 4.53; controls 3 of 9)
- S31V G33T G61N = 1.38, 1.20, 1.39 (mean 1.33; controls 1 of 9)
- G33T G99I G103L = nd, nd, 4.91 (controls 1 of 9)
- Y32C G33N T104D = nd, nd, nd (controls 0 of 9)
- N30R G33W A101D = nd, nd, 3.94 (controls 3 of 9)
- G26A T28C G33F = 4.81, nd, 5.35 (mean 5.08; controls 6 of 9)
- G33T S53L D54F = nd, nd, nd (controls 0 of 9)
- G33F Y60G G61D = 3.38, nd, 4.54 (mean 3.96; controls 3 of 9)
- S31W G33K R100C = nd, nd, nd (controls 1 of 9)
- G33I = nd, nd, nd (controls 1 of 9)
- L29K G33W = nd, 3.01, nd (controls 0 of 9)
- G26L G33E I51W = nd, 3.24, nd (controls 1 of 9)
- S31C G33A I51H = nd, nd, 3.38 (controls 1 of 9)
- G33S Y52W A102Q = nd, nd, nd (controls 1 of 9)
- G26H G33N I34K = nd, nd, 3.75 (controls 0 of 9)
- L29Q G33T R57A = 5.07, nd, nd (controls 1 of 9)
- S31C G33Y D62A = nd, 3.99, nd (controls 1 of 9)
- G33I R100V = nd, nd, nd (controls 0 of 9)
- L29F G33A F59Q = nd, nd, 5.36 (controls 2 of 9)
- Y32W G33Y S53T = nd, nd, nd (controls 0 of 9)
- G33L V50W V64G = nd, nd, nd (controls 0 of 9)
- G26Y G33D T104D = nd, 4.55, 3.92 (mean 4.23; controls 3 of 9)
- N30S G33S S63Q = nd, nd, nd (controls 2 of 9)
- Y32R G33P = nd, 5.22, 4.87 (mean 5.04; controls 2 of 9)
- S31D G33E = nd, 4.92, nd (controls 2 of 9)
- F27S G33E F105G = nd, 2.62, nd (controls 0 of 9)
- G33A S53Q S107I = nd, nd, 4.30 (controls 3 of 9)
- G33D Y60D S63P = 3.91, 3.43, 4.44 (mean 3.93; controls 2 of 9)
- G33S S53W G55E = nd, nd, nd (controls 0 of 9)
- G33S D62I G99S = nd, nd, nd (controls 0 of 9)
- G33L I34P I51P = nd, nd, nd (controls 0 of 9)
- N30F G33S Y60M = nd, nd, nd (controls 2 of 9)
- N30E G33D T58L = nd, nd, 3.39 (controls 0 of 9)
- G26K G33N G103A = 3.73, 3.54, nd (mean 3.64; controls 1 of 9)
- G33P I51K F105M = nd, nd, nd (controls 0 of 9)
- F27N G33D K65C = 5.88, 4.52, 4.94 (mean 5.11; controls 6 of 9)
- S31Q G33Q I51C = nd, nd, nd (controls 0 of 9)
- L29N Y32H G33S = 0.76, 0.74, 0.36 (mean 0.62; controls 0 of 9)
- G33H I34W G99T = nd, 2.95, nd (controls 2 of 9)
- G33Q I34D G99Q = nd, nd, nd (controls 0 of 9)

Extract of 7 entries:

changes	replicates, log10 nM	mean, log10 nM	control signals
G33H I34W G99T	nd, 2.95, nd	2.95	2/9
G33T G99I G103L	nd, nd, 4.91	4.91	1/9
S31C G33Y D62A	nd, 3.99, nd	3.99	1/9
G33I R100V	nd, nd, nd	nd	0/9
G33S Y52W A102Q	nd, nd, nd	nd	1/9
G33L V50W V64G	nd, nd, nd	nd	0/9
L29K G33W	nd, 3.01, nd	3.01	0/9

Empty control strains, which show no peptide, gave a signal in 15% of pairings with library AAYL49; the median was 4.06 and 95% of these signals were weaker than 2.83. No background was subtracted. The control count says in how many pairings with the empty strains this scFv gave a signal. In this assay the parent's reference entry averaged 0.65; its copy inside this library read 4.11 (one replicate of three).